The values that follow come from patent publication US20090215669A1, “COMPOSITIONS AND METHODS FOR TREATMENT OF DIABETES” (DIA-B TECH LIMITED, priority 2005, published 2009).

Some results are limits rather than exact numbers.

Series [1] is described as follows: Stability in simulated intestinal fluid (SIF). As to conditions: SDS-gel electrophoresis.
The nature of series [2]: Stability in simulated gastric fluid (SGF). As to conditions: SDS-gel electrophoresis.

As to bovine serum albumin [BSA], the degradation result in series [1] was “appearance of lower molecular degradation products after longer incubations”. This substance yielded a time to degradation in series [2] of no more than 2 min.
